From patent US6541514B2, “Process for the manufacture of 117Sn diethylenetriaminepentaacetic acids” (Brookhaven Science Associates, LLC, priority 2001, dated 2003)

System: Chinese hamster V79 cells
Assay: Radiotoxicity in cultured mammalian cells (colony survival)
Type: cell-based
Description: This radiopharmaceutical localizes predominantly in the bone where it emits short-range conversion and Auger electrons. […] The highest concentration of ^117mSn are found in the vicinity of bone metastases. Accordingly, it is of interest to explore the potential of ^117mSn(Sn^4+)DTPA as an agent to sterilize bone metastases. The present study examines the radiotoxicity of composition of the invention when incorporated into cultured mammalian cells.
Chinese hamster V79 cells were suspended in culture medium containing various concentrations of ^117mSn(Sn^4+)DTPA for 14 h and then washed free of all extracellular radioactivity. The cells were then resuspended in fresh culture medium and maintained at 10.5° C. on a rocker-roller for 72 h. Cells were then washed again, serially diluted, and seeded into culture dishes. After 1 week the colonies were stained and counted, the surviving fraction compared to unlabeled controls was determined.
Cellular uptake of ^117mSn was linearly dependent on the extracellular concentration of ^117mSn(Sn^4+)DTPA. […] When the survival fraction was plotted as a function of cellular uptake of radioactivity, an exponential response reminiscent of high-LET type radiation emerged. The cellular uptake required to achieve 37% survival was 0.95 mBq/cell. Cellular dosimetry calculations indicate that this corresponds to a mean lethal dose D37 of 0.76 Gy. […] Therefore, the relative biological effectiveness of ^117mSn(Sn^4+)DTPA compared to P-32 orthophosphate is 9.3 in these controlled experiments, but can be expected to be as much as 20 or more in the final clinical application, depending upon the tumor burden of the patient.

Substance: ^117mSn (Sn^4+) diethylenetriaminepentaacetic acid (DTPA) [^117mSn(Sn^4+)DTPA]
- mean lethal dose D37 (V79 cells, cellular dosimetry calculations): 0.76 Gy
- relative biological effectiveness compared to P-32 orthophosphate (controlled experiments in V79 cells): 9.3
- relative biological effectiveness compared to P-32 orthophosphate, expected (final clinical application, depending upon the tumor burden of the patient): ≥ 20
